Biological target: Carbonic anhydrase 2 (Homo sapiens, UniProt P00918)
Assay: In Vitro Binding for Human Carbonic Anhydrase II
Settings: pH 7.4; 37 °C

Kd	Compound
160 pM	COc1ccc(N2C[C@H](O)c3cc(S(N)(=O)=O)sc3S2(=O)=O)cc1 [4-hydroxy-2-(4-methoxyphenyl)-1,1-dioxo-2H,3H,4H-1,7,2-thieno[3,2-e][1,2]thiazine-6-sulfonamide]
100 pM	COc1cccc(N2CCc3cc(S(N)(=O)=O)sc3S2(=O)=O)c1 [2-(3-methoxyphenyl)-1,1-dioxo-2H,3H,4H-1,7,2-thieno[3,2-e][1,2]thiazine-6-sulfonamide]
